This note sets out measurements from PubChem BioAssay AID743397 (Broad Institute, 2014).

Each structure is given as a SMILES string. The list shows a part of the results, in another mix than the full data. Active and inactive are the calls of the source.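 The calls were made as follows: active = mean replicate inhibition of at least 30% and at least 1% of replicates passing that level; inconclusive = only one of the two criteria is met; inactive = neither criterion is met.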

The subject of this experiment is Voltage-dependent L-type calcium channel subunit alpha-1D (CaV1.3) ICDI/IQ interaction. Kind of experiment: Primary screen for inhibitors of IQ motif and Ca2+-dependent inactivation inhibitor domain binding in CACNA1D, Förster resonance energy transfer in living cells, single-concentration test (AID 743397).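 Also: 0% = median of the neutral control wells.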 The note with it: HEK cells, CFP/YFP FRET ICDI-IQ, plate reader, 10 min; at 12.3 µM; active compounds read high; percent FRET-ratio fall versus neutral wells.
As usually defined, the inhibition is the change of the read-out against control, counted positive when it falls. Take `N/C(=N\O)c1c(N)no[n+]1[O-]`: the inhibition is inactive: -2.38%. In the case of `O=C(OC1CN2CCC1CC2)C1c2ccccc2C=Cc2ccccc21` (stereo not drawn), the inhibition is inactive: -5.83%. On to `O=c1[nH]c2ccccc2n1C1CCN(C(c2cccs2)c2nnnn2C2CCCC2)CC1` (stereo not drawn), for which the inhibition is inactive: -4.48%. For `CCCCn1nnnc1C(c1cccc(OC)c1OC)N1CCC(n2c(=O)[nH]c3ccccc32)CC1` (stereo not drawn) the value was inactive: -9.98%.

`CCCCn1nnnc1C(c1ccccc1)N1CCC(n2c(=O)[nH]c3ccccc32)CC1` (stereo not drawn): the inhibition is inactive: -9.67%.

Regarding `COc1cc(C(=O)NCC2(N3CCOCC3)CCCCC2)cc(OC)c1C`, the inhibition is inactive: -6.17%.

As to `O=C(NCC1(N2CCOCC2)CCCCC1)c1cc(Br)ccc1Cl`, the inhibition was inactive: -6.22%.

For `O=c1[nH]c2ccccc2n1C1CCN(C(c2cccs2)c2nnnn2C2CCCCC2)CC1` (stereo not drawn), the inhibition is inactive: -4.51%. For `COc1ccc(C(=O)NCC2(N3CCOCC3)CCCCC2)cc1OC` the value was inactive: -6.92%; for `O=c1[nH]c2ccccc2n1C1CCN(C(c2ccnc3ccccc23)c2nnnn2C2CCCC2)CC1` (stereo not drawn), inactive: -5.24%; for `CN(C)C1(CNC(=O)c2cccc(C#N)c2)CCCCC1`, inactive: -19%. The value for `C/C(N)=N\P(=O)(Oc1ccccc1)Oc1ccccc1` was inactive: -3.84%; that for `c1ccc(CN2CCC(Nc3ccccc3)CC2)cc1` was inactive: -5.62%. In the case of `CCCN1CCC(Nc2cc(OC)cc(OC)c2)CC1`, the inhibition was inactive: -19.1%. In the case of `Cc1cc(N(CCCl)CCCl)ccc1C=O`, the inhibition was inactive: -2.49%.

`CC(C)(C)n1nnnc1C(c1cccc2ccccc12)N1CCC(n2c(=O)[nH]c3ccccc32)CC1` (stereo not drawn): the inhibition is inactive: -5.02%. The value for `N#Cc1ccc(C(=O)NCC2(N3CCCCC3)CCCCC2)cc1` was inactive: -2.59%.

As to `CC(C)(C)OC(=O)N1CCC(N(C(=O)c2ccccc2)c2ccc(Cl)cc2)CC1`, the inhibition was inactive: -18.2%. Take `O=C(NCC1(N2CCCCC2)CCCCC1)c1cccc(C(F)(F)F)c1`: the inhibition was inactive: -3.47%.

With `O=C(NCC1(N2CCOCC2)CCCCC1)c1cc(=O)[nH]c2ccccc12`, the inhibition is inactive: 1.55%.

As for `COc1cc(C(=O)NCC2(N3CCCCC3)CCCCC2)ccc1OC(F)F`, the inhibition was inactive: -7.19%.

Turning to `COc1ccc(NC2CCN(C(=O)OC(C)(C)C)CC2)cc1`, the inhibition was inactive: -15.5%. For `CC(C)c1ccc(C(=O)NCC2(N3CCOCC3)CCCCC2)cc1` the value was inactive: -4.69%; for `CN1CCN(CCOC(=O)C(O)(c2ccccc2)c2ccccc2)CC1`, inactive: -4.01%; for `CCCCn1nnnc1C(c1cccc2ccccc12)N1CCC(n2c(=O)[nH]c3ccccc32)CC1` (stereo not drawn), inactive: -5.93%.

Take `CC(C)(C)n1nnnc1C(c1ccccc1OC(F)(F)F)N1CCC(n2c(=O)[nH]c3ccccc32)CC1` (stereo not drawn): the inhibition is inactive: -5.61%. On to `O=C(NCC1(N2CCCCC2)CCCCC1)c1ccc(OC(F)F)cc1`, for which the inhibition was inactive: -3.1%. For `CCN1CCC(Nc2ccc(Cl)cc2)CC1` the value was inactive: 12%. The value for `O=c1[nH]c2ccccc2n1C1CCN(C(c2ccccc2OC(F)(F)F)c2nnnn2C2CCCC2)CC1` (stereo not drawn) was inactive: -5.32%.

For the compound `O=C(NCC1(N2CCCCC2)CCCCC1)c1cccc([N+](=O)[O-])c1`, the inhibition was inactive: -17.5%. As to `CSc1ccc(C(=O)NCC2(N3CCOCC3)CCCCC2)cc1`, the inhibition was inactive: -5.04%. The value for `CN1CCC(Nc2cccc(F)c2)CC1` was inactive: -6.4%; that for `O=C(NCC1(N2CCCCC2)CCCCC1)c1cncc(Br)c1` was inactive: -4.9%; that for `COc1ccc(C(c2nnnn2C2CCCC2)N2CCC(n3c(=O)[nH]c4ccccc43)CC2)cc1` (stereo not drawn) was inactive: -9.79%. For `Cc1ccc(C(=O)NCC2(N(C)C)CCCCC2)o1` the value was inactive: -6.25%.

With `CCCOc1ccc(C(=O)NCC2(N(C)C)CCCCC2)cc1OC`, the inhibition is inactive: -4.34%. The value for `COc1ccc(CN(CCCl)CCCl)cc1Cl` was inactive: -9.05%; that for `CN(C)c1cccc(C(=O)NCC2(N3CCCCC3)CCCCC2)c1` was inactive: -3.95%. The value for `COc1cc(OC)c(C(=O)NCC2(N(C)C)CCCCC2)cc1OC` was inactive: -3.81%; that for `O=C(NCC1(N2CCOCC2)CCCCC1)c1cc(F)c(F)cc1Cl` was inactive: -5.76%. The value for `CCC(c1nnnn1C(C)(C)C)N1CCC(n2c(=O)[nH]c3ccccc32)CC1` (stereo not drawn) was inactive: -2.99%; that for `CCCCn1nnnc1C(c1ccnc2ccccc12)N1CCC(n2c(=O)[nH]c3ccccc32)CC1` (stereo not drawn) was inactive: -8.9%. On to `O=C(NCC1(N2CCCCC2)CCCCC1)c1ccc(Cl)nc1`, for which the inhibition was inactive: -7%. For `O=c1[nH]c2ccccc2n1C1CCN(C(c2ccccc2OC(F)(F)F)c2nnnn2C2CCCCC2)CC1` (stereo not drawn) the value was inactive: -4.49%; for `Cc1cc(C)cc(N(C(=O)c2ccccc2)C2CCN(C(=O)OC(C)(C)C)CC2)c1`, inactive: -17.8%; for `O=C(NCC1(N2CCCCC2)CCCCC1)c1ccc(Cl)s1`, inactive: -15.3%.

As to `N#CC1(Nc2ccccc2)CCN(Cc2ccccc2)CC1`, the inhibition was inactive: -4.58%. In the case of `O=c1[nH]c2ccccc2n1C1CCN(C(c2cc3ccccc3o2)c2nnnn2C2CCCCC2)CC1` (stereo not drawn), the inhibition was inactive: -6.63%. `O=C(OC1CN2CCC1CC2)C1c2ccccc2Oc2ccccc21` (stereo not drawn): the inhibition was inactive: -6.61%. The value for `COc1ccc(Cl)cc1C(=O)NCC1(N2CCOCC2)CCCCC1` was inactive: -2.22%; that for `CCOC(=O)N1CCC(Nc2ccc(OC)cc2)CC1` was inactive: -4.14%; that for `CCCCn1nnnc1C(c1ccc(OC)cc1)N1CCC(n2c(=O)[nH]c3ccccc32)CC1` (stereo not drawn) was inactive: -5.93%. With `COc1ccc(C(=O)NCC2(N3CCCCC3)CCCCC2)cc1`, the inhibition is inactive: -5.71%.

In the case of `COc1ccc(C(=O)NCC2(N3CCCCC3)CCCCC2)c(OC)c1OC`, the inhibition was inactive: 6.82%.

`CC(C)(C)OC(=O)N1CCC(N(C(=O)c2ccccc2)c2ccc(F)cc2)CC1`: the inhibition is inactive: -15.9%. On to `CCC(c1nnnn1C1CCCC1)N1CCC(n2c(=O)[nH]c3ccccc32)CC1` (stereo not drawn), for which the inhibition was inactive: -3.09%. Turning to `O=C(NCC1(N2CCCCC2)CCCCC1)c1ccc(=O)[nH]c1`, the inhibition was inactive: -2.8%. The value for `CCCCn1nnnc1C(CC)N1CCC(n2c(=O)[nH]c3ccccc32)CC1` (stereo not drawn) was inactive: -4.38%; that for `O=C(NCC1(N2CCCCC2)CCCCC1)c1cccs1` was inactive: -5.5%. As for `CCCCn1nnnc1C(c1cccs1)N1CCC(n2c(=O)[nH]c3ccccc32)CC1` (stereo not drawn), the inhibition was inactive: -2.67%. For `CSc1ccccc1C(=O)NCC1(N2CCCCC2)CCCCC1` the value was inactive: -2.65%; for `Cc1cccc(NC2(C#N)CCN(Cc3ccccc3)CC2)c1`, inactive: -6.18%; for `O=c1[nH]c2ccccc2n1C1CCN(C(c2ccccc2)c2nnnn2C2CCCCC2)CC1` (stereo not drawn), inactive: -6.09%. For `CCOC(=O)N1CCC(Nc2cccc(C)c2)CC1` the value was inactive: -2.3%; for `COc1cc(C(=O)NCC2(N(C)C)CCCCC2)ccc1OC(F)F`, inactive: -20.6%; for `O=c1[nH]c2ccccc2n1C1CCN(C(c2cccc3ccccc23)c2nnnn2C2CCCC2)CC1` (stereo not drawn), inactive: -5.52%. For `CC(C)(C)n1nnnc1C(c1ccccc1)N1CCC(n2c(=O)[nH]c3ccccc32)CC1` (stereo not drawn) the value was inactive: -9.49%; for `CCOc1ccc(C)cc1CN(CCCl)CCCl`, inactive: -12.1%. In the case of `CCCCOc1ccc(C(=O)NCC2(N3CCOCC3)CCCCC2)cc1`, the inhibition is inactive: -2.68%. Take `O=P1(N(CCCl)CCCl)SCCCS1`: the inhibition was inactive: -9.31%. In the case of `O=C(NCC1(N2CCCCC2)CCCCC1)c1ccc(F)cc1`, the inhibition was inactive: -7.34%. The value for `CCOC(=O)N1CCC(Nc2ccc(F)cc2)CC1` was inactive: -4.3%; that for `COc1ccc(NC2CCN(CCc3ccccc3)CC2)c(OC)c1` was inactive: -3.52%.
